Bioassay records: PubChem, several laboratories
UUG fidelity – modulators of yeast start codon fidelity, primary screen, whole organism, S. cerevisiae, single point, plate reader | activity score, % at 18.7 µM | 350,000 tested, 0.13% active | S. cerevisiae UUG-firefly luciferase reporter, luminescence/redox ratio;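 active means replicate mean at a twofold rise or more, about +100% in these data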;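 further: firefly luciferase made from a UUG start codon reports start codon fidelity; reporter light over untreated wells divided by growth signal over untreated wells; some hits fall short of that in this replicate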
MC4R barr agon – human MC4R agonism via beta-arrestin. P32245. U2OS MC4R beta-arrestin complementation, luminescence; percent of melanotan II response, DMSO zero. activation, % at 8.9 µM. 360,000 compounds, 0.98% hits. AID 540308;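 active means activation above a per-plate cutoff, the mean activation of sample wells on that plate plus 3 SD, cut at about 8% in these data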
MC4R antag cAMP – blocks human MC4R cAMP signaling. MC4R-expressing cells, MTII-stimulated cAMP, LANCE TR-FRET. P32245. inhibition, % at 6.5 µM. 360,000 compounds, 0.48% hits;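 active means inhibition above its plate's cutoff, the mean of tested wells on that plate plus 3 SD, cut at about 29% in these data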;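 further: 0% = Melanotan II alone and 100% = Melanotan II plus saturating MCL0020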
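Assay system: U2OS-MC4R stable cell line; Also added: Melanotan II; Technique: Eu-cAMP/anti-cAMP TR-FRET, emission 671 nm; Times: 30-min compound, 1-h challenge, 1-h detection, room temperature.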
ALR inh – inhibitors of human ALR sulfhydryl oxidase, primary screen, biochemical, H2O2 detection, HRP-luminol luminescence, single point. inhibition, % (concentration not given with the values). 290,000 compounds, 3.8% hits. purified ALR, DTT oxidation. AID 485317, 2010;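 active means mean and each replicate at 75% or more; inconclusive means only one of the two met; inactive means neither met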;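 further: stock transfer was 7.5 nL into about 7.5 µL; 0% = neutral wells and 100% = wells with inactivated enzyme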
HDAC3 inh – inhibitors of human histone deacetylase 3. 320,000 compounds, 0.15% hits. recombinant HDAC3, fluorogenic peptide/trypsin coupled, fluorescence. AID 2718. inhibition, % at 8.3 µM; in the data active means inhibition above about 26%, passing the limit was not always enough; inconclusive means no clear call, values can overlap the other calls
NALP1 inh – inhibitors of NALP1 inflammasome in yeast; S. cerevisiae NALP1/ASC/caspase-1 growth, X-gal OD620, 72 h; inhibition, % at 10 µM; 280,000 compounds, 0.61% hits; AID 2071; in the data active means inhibition mostly above about 24%, no sharp cut-off; inactive means mostly below about 32%
MC4R barr conf – human MC4R beta-arrestin agonism confirmation | shares compounds with MC4R barr agon | U2OS MC4R beta-arrestin recruitment, luminescence; scaled DMSO 0%, Melanotan II 100% | activation, % at 8.9 µM | 2,400 compounds, 31% hits;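 active means mean activation across replicates above the hit cutoff set in the earlier primary screen, cut at about 8% in these data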
MOR DOR agonist – OPRM1-OPRD1 heterodimer agonism counter-screen | shares compounds with MC4R barr agon | U2OS PathHunter beta-arrestin, beta-gal luminescence; percent of deltorphin B response, DMSO zero | activation, % at 9.2 µM | 2,400 compounds, 5.8% hits | AID 602194;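 active means mean activation across replicates exceeds the hit threshold derived in the earlier primary screen, cut at about 18% in these data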;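 further: 100% = deltorphin B at 0.9 µM final and 0% = DMSO alone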
The depositor's hits bear a star; u = inconclusive; x = not tested or not shown. This is a sample that favours compounds with a hit; in the whole collection about 4.2% have one here.

1	C[C@@H]1CCCCO[C@@H](CN(C)CC2CC2)[C@H](C)CN([C@@H](C)CO)C(=O)c2cc(NC(=O)Nc3ccc(F)cc3)ccc2O1
2	CCOc1ccc(N(CC(=O)Nc2ccc(F)c(F)c2)S(=O)(=O)c2c(C)noc2C)cc1
3	C[C@H](O)C#Cc1cnc2c(c1)C(=O)N([C@H](C)CO)C[C@@H](C)[C@H](CN(C)C(=O)c1ccccc1)O2
4	Cc1cc(C)c2nc(-c3ccccn3)cc(C(=O)NCc3ccc(S(N)(=O)=O)cc3)c2c1
5	COc1ccc(NC(=O)c2cc(-c3ccccn3)nc3c(C)cc(C)cc23)c(C)c1
6	Cc1cc(C)c2nc(-c3ccccn3)cc(C(=O)NCCc3ccc(S(N)(=O)=O)cc3)c2c1

compound no. | 1 | 2 | 3 | 4 | 5 | 6
MC4R barr agon | x | 9.6* | x | 9.7* | 12* | 7
UUG fidelity | 20 | -22 | 0 | x | -12 | -2
HDAC3 inh | x | 4 | x | -1 | 4 | -3
MC4R antag cAMP | x | -1 | x | 2 | 20 | -2
NALP1 inh | x | 15 | x | 10 | 6 | 10
MOR DOR agonist | x | 7 | x | 5 | 3 | x
MC4R barr conf | x | 1 | x | 0 | 3 | x
ALR inh | x | -59 | x | 0 | -2 | 2

7	COc1cccc(NC(=O)c2cc(-c3ccncc3)nc3c(C)cc(C)cc23)c1
8	Cc1ccccc1S(=O)(=O)N[C@@H]1CC[C@H](CCn2cc(Cc3ccccc3)nn2)O[C@H]1CO
9	O=[N+]([O-])c1cccc(/C=C/CO)c1
10	Cc1cc(C)nc(Nc2n[nH]c(COc3ccc4ccccc4c3)n2)n1
11	C[C@@H]1CCCCO[C@@H](CN(C)C)[C@@H](C)CN([C@H](C)CO)C(=O)c2cc(NC(=O)Nc3cccc4ccccc34)ccc2O1
12	COc1cc(/C=C/C(=O)OCC(=O)Nc2ccccc2Cl)cc(OC)c1OC

compound no. | 7 | 8 | 9 | 10 | 11 | 12
MC4R barr agon | 2 | x | x | 16* | x | 15*
UUG fidelity | x | -7 | -23 | -14 | 4 | x
HDAC3 inh | 2 | x | x | 8 | x | -7
MC4R antag cAMP | 2 | x | x | 0 | x | 1
NALP1 inh | -6 | x | x | 12 | x | 3
MOR DOR agonist | x | x | x | 3 | x | 10
MC4R barr conf | x | x | x | 0 | x | 4
ALR inh | -3 | x | x | -3 | x | 5

13	COc1cc(/C=C/C(=O)OCC(=O)NCCc2ccccc2)cc(OC)c1OC
14	CCOc1ccccc1NC(=O)COC(=O)/C=C/c1cccs1
15	COC(=O)c1ccccc1NC(=O)COC(=O)/C=C/c1cccs1
16	CC1=CC2=NC(=O)/C(=C/c3cccn3Cc3ccccc3)C(=N)N2O1
17	CC1=CC2=NC(=O)/C(=C\c3cccn3CCOc3ccc(C)c(C)c3)C(=N)N2O1
18	CCOC(=O)CSc1c(-c2ccc(Cl)cc2)[nH]c2ccccc12

compound no. | 13 | 14 | 15 | 16 | 17 | 18
MC4R barr agon | 0 | 0 | 20* | -2 | 14* | 11*
UUG fidelity | x | 2 | -11 | -10 | -11 | -9
HDAC3 inh | 0 | 0 | -1 | 3 | 5 | 4
MC4R antag cAMP | 10 | 7 | 4 | 12 | -2 | 12
NALP1 inh | 4 | x | x | 0 | 10 | 20
MOR DOR agonist | x | x | 2 | x | 5 | 14
MC4R barr conf | x | x | 4 | x | -3 | 4
ALR inh | 21 | 1 | 11 | x | -1 | 2

A second format for some results above.
[16] CC1=CC2=NC(=O)/C(=C/c3cccn3Cc3ccccc3)C(=N)N2O1
  MC4R barr agon: -2; UUG fidelity: -10; HDAC3 inh: 3; MC4R antag cAMP: 12; NALP1 inh: 0; MOR DOR agonist: x; MC4R barr conf: x; ALR inh: x

[17] CC1=CC2=NC(=O)/C(=C\c3cccn3CCOc3ccc(C)c(C)c3)C(=N)N2O1
  MC4R barr agon: 14*; UUG fidelity: -11; HDAC3 inh: 5; MC4R antag cAMP: -2; NALP1 inh: 10; MOR DOR agonist: 5; MC4R barr conf: -3; ALR inh: -1

[18] CCOC(=O)CSc1c(-c2ccc(Cl)cc2)[nH]c2ccccc12
  MC4R barr agon: 11*; UUG fidelity: -9; HDAC3 inh: 4; MC4R antag cAMP: 12; NALP1 inh: 20; MOR DOR agonist: 14; MC4R barr conf: 4; ALR inh: 2

The list goes on.
19	Cc1cc(Cl)c(S(=O)(=O)N2CCCC2)cc1OCC(N)=O
20	Cc1cc(Cl)c(S(=O)(=O)N2CCN(c3cccc(C)c3C)CC2)cc1OCC(N)=O
21	CO[C@@H]1CN(C)C(=O)c2ccc(NC(=O)C3CC3)cc2OC[C@@H](C)N(Cc2ccccc2)C[C@H]1C
22	CCOC(=O)c1c(CSc2ccc(CC)cc2)oc2ccc(O)c(CN(C)C)c12
23	CCOC(=O)c1c(C)oc2ccc(O)c(CN(C)C)c12
24	CC(=O)Nc1ccc(S(=O)(=O)Nc2cc(C)c(-n3nc4ccccc4n3)cc2O)cc1
25	CC(=O)Nc1ccc(S(=O)(=O)Nc2ccccc2C(=O)N2CCCC2)cc1
26	O=C(CCc1nc2ccccc2c(=O)[nH]1)OCc1ccc(-c2ccccc2)cc1

compound no. | 19 | 20 | 21 | 22 | 23 | 24 | 25 | 26
MC4R barr agon | 3 | 14* | x | 20* | -1 | 11* | 0 | 18*
UUG fidelity | x | -12 | 28 | -11 | 2 | 0 | -15 | x
HDAC3 inh | -10 | u | x | 3 | 3 | -2 | 2 | 0
MC4R antag cAMP | -6 | 13 | x | 2 | 3 | -11 | 2 | -6
NALP1 inh | 19 | 2 | x | 16 | 2 | 13 | 15 | 26
MOR DOR agonist | x | 6 | x | 12 | x | 3 | x | 6
MC4R barr conf | x | 4 | x | 15* | x | 0 | x | 3
ALR inh | 4 | -25 | x | -3 | 13 | -10 | 1 | 0
